Literature values as cited in patent publication US20090156465A1, “DERIVATIVES OF BETA-AMINO ACID AS DIPEPTIDYL PEPTIDASE-IV INHIBITORS” (priority 2005, published 2009).

Conditions: rapidly cleaved by DPP IV

In the case of “glucose-dependent insulinotropic polypeptide [GIP]”, the t1/2 is listed as about 7 min.
